Results as given in patent publication US8067603B2 (priority 2003, dated 2011).

Chains of the proteins cited; added tags and fusions are not shown. Lines headed by an entry give the natural chain unless they say otherwise; changes in a name come on top.
UniProt P41146: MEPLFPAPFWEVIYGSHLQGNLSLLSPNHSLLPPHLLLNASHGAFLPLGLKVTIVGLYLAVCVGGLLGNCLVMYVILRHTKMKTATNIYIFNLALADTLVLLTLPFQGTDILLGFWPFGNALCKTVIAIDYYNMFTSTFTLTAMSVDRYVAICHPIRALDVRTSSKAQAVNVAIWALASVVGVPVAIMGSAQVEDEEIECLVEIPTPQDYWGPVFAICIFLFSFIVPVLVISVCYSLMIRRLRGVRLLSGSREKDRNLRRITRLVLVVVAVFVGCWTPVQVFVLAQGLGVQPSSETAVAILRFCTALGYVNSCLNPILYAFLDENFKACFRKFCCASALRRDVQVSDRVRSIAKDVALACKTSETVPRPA
UniProt P35372, whole entry, looked up: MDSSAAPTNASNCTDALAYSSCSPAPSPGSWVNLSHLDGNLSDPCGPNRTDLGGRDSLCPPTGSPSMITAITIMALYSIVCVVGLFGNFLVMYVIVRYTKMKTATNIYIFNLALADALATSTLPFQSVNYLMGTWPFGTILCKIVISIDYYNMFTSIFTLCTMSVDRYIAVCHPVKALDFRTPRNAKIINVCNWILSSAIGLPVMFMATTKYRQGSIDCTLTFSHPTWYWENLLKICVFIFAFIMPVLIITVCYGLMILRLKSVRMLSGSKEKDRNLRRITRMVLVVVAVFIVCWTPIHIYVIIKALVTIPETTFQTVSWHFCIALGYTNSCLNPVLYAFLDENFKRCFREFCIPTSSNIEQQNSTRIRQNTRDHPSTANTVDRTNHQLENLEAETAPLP

Key:
ORL1 receptor [1] = biological target: T1, ORL1 receptor (Homo sapiens, UniProt P41146); assay: Affinity for human ORL1 receptors, [3H]-nociceptin binding, CHO-cell membranes; details: membranes of CHO-cells expressing human ORL1
human μ-opiate receptor = human μ-opiate receptor (Homo sapiens, UniProt P35372); assay: Affinity for human μ-opiate receptors, [3H]-naloxone binding, CHO-cell membranes; details: membranes of CHO-cells expressing human μ-opiate receptor
ORL1 receptor [2] = biological target: T1, ORL1 receptor; assay: In vitro ORL1 receptor agonism, cAMP assay

## O=c1[nH]c2ccccc2n1C1CCN(C2CCC3CCCc4cccc2c43)C1 (stereo not drawn)
ORL1 receptor [1]
  affinity ORL1 pKi: 7.5
Human μ-opiate receptor
  affinity μ-opi pKi: <6.0
ORL1 receptor [2]
  In vitro agonism cAMP assay pEC50: 9.1
